The target of the experiment is T1, recombinant HDAC6 (Homo sapiens, UniProt Q9UBN7).
T1 sequence (Q9UBN7 1-1215): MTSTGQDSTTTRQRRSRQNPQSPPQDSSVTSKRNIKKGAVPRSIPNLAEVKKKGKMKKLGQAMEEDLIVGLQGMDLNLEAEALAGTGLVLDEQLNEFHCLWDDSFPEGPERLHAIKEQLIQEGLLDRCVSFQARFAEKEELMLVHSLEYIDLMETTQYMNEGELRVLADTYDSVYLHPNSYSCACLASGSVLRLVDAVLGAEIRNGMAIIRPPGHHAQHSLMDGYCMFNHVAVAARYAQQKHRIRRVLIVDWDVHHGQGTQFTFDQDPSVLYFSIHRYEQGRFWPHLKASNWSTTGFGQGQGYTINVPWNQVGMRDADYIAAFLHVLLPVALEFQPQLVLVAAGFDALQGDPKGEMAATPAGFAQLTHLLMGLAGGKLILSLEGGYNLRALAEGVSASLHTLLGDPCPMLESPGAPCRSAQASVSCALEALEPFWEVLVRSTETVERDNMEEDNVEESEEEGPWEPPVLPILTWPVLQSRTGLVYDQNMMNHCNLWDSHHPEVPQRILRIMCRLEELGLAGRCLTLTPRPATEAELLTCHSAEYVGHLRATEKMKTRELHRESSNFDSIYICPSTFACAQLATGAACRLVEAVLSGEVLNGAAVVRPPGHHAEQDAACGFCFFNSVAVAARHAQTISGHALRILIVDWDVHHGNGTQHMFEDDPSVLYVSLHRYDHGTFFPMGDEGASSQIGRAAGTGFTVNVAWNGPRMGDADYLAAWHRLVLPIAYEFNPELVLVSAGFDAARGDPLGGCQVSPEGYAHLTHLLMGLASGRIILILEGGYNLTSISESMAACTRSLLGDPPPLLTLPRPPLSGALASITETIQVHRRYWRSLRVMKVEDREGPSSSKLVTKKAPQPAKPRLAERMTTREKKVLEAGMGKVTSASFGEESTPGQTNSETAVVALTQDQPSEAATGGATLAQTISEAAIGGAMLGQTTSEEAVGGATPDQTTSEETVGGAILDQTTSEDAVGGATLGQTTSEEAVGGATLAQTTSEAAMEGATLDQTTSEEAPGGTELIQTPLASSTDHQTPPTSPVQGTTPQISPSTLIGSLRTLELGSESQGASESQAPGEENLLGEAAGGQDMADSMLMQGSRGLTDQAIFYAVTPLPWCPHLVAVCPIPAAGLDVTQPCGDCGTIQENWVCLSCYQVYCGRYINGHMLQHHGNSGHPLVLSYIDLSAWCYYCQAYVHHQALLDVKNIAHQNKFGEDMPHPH
To be noted: cell-free; 7.5 or 15 μM sulforaphane, or 400 nM TSA; versus vehicle-treated HDAC6 control.

Each structure is given as a SMILES string.

Turning to `CC(/C=C/C(=O)NO)=C\[C@@H](C)C(=O)c1ccc(N(C)C)cc1` [TSA, trichostatin A], the “HDAC6 deacetylase activity on tubulin” value is on record as “decreased HDAC6 deacetylase activity”.
